Values quoted from earlier work, collected in publication PMC7864917.

Target: RyR1 (UniProt P21817)
Settings: cited from earlier work

Calmodulin (apo) (from UniProt P0DP23)
Kd: 30 nM
